Literature values as cited in patent US20230338417A1, “Improved Pharmaceutical Preparation” (priority 2020, published 2023).

chlorous acid
Acid dissociation constant as pKa at 298K: 2
